Assay results reported in PMC2747018.

Target: U1-A protein of the native human U1 snRNP (human (endogenous in HeLa)) (UniProt P09012)
Test: native MS; nano ESI-MS of the intact U1 snRNP purified from HeLa cells, 200 mM ammonium acetate, Q-ToF2, collision cell 100 V; the complex holds U1 snRNA

Substance | stoichiometry N
Sm-B' (from UniProt P14678 1-240) (natural protein; other documents disagree on this pair) | 1
Sm-B (from UniProt P14678-2 1-231) (natural protein; other documents disagree on this pair) | 1
